Experimental data published in US4524068A, “Cyclodextrin inclusion complex of piperonyl butoxide” (priority 1982, dated 1985).

Details: water, 1 h

inclusion complex of α-cyclodextrin and piperonyl butoxide [Example 7]
amount of piperonyl butoxide which can be dissolved from the complex: 0.165 mg/mL
